For the assay, the target named is CYP2C9 (Homo sapiens, UniProt P11712). In words: biochemical.

Amino acid sequences for entries named in this document (tags omitted).
UniProt P11712, whole entry: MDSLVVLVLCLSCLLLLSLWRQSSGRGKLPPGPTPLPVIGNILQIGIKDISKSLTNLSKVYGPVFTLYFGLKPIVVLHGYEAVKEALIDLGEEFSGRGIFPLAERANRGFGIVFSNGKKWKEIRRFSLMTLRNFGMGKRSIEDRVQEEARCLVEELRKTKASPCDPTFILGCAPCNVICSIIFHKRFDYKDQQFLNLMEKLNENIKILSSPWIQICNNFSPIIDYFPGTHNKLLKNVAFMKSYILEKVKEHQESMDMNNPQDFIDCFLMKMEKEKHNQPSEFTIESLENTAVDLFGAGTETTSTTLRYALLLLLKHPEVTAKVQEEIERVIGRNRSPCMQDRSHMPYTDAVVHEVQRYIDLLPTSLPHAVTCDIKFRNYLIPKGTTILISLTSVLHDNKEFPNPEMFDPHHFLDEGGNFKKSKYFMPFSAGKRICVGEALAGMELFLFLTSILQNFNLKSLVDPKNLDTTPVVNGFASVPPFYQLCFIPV

For `Cc1nc(SC(C(=O)c2c[nH]c3ccccc23)c2ccccc2)sc1CC(N)=O` (racemic) [Compound 3, 2-(2-{[2-(1H-indol-3-yl)-2-oxo-1-phenylethyl]sulfanyl}-4-methyl-1,3-thiazol-5-yl)acetamide], the 50% inhibitory concentration (IC50) was found to be 1500 nM. This counts as single-digit micromolar.

The values are drawn from US20200247794A1, “PHARMACOPHORES, COMPOUNDS AND METHODS HAVING APPLICATION IN THE TREATMENT OF CANCER THROUGH INHIBITION OF CYP17A1 AND CYP19A1” (MANGOSUTHU UNIVERSITY OF TECHNOLOGY, priority 2015, published 2020).
